Measurements as given in ChEMBL document CHEMBL1147643 (J Med Chem, 2006).
Active and inactive are the calls of the source. No cut-off for these calls is given here.

By UniProt entry, the sequences of proteins in these tests, tags left out.
UniProt P0DMS8, whole entry: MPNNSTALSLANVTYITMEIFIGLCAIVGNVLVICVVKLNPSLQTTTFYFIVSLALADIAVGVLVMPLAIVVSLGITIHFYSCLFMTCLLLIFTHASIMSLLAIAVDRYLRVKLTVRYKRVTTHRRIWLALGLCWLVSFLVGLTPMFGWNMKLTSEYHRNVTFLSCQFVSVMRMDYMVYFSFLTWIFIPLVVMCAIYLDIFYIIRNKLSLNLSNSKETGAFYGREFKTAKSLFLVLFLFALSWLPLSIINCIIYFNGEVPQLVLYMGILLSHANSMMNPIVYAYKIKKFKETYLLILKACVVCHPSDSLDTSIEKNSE

Assays:
Adenosine receptor A3 [1] = target: T1, Adenosine receptor A3 (Homo sapiens, UniProt P0DMS8); assay: Protection against stimulated ischemia in chick cardiomyocytes transfected with human adenosine A3 receptor H272E mutant by activation of PLD pathway at 100 uM; type: functional, cell-based
Adenosine receptor A3 [2] = target: T1, Adenosine receptor A3; assay: Protection against stimulated ischemia in chick cardiomyocytes transfected with human adenosine A3 receptor measured as percent of killed cells; type: functional, cell-based

Nc1ncnc2c1ncn2[C@@H]1O[C@H](CO)[C@@H](O)[C@H]1O
Activity (Adenosine receptor A3 [1]): inactive
Activity (Adenosine receptor A3 [2]): 10%
